Legend:
Homo sapiens [1] = species: Homo sapiens; experiment: Selectivity index, ratio of IC50 for KDR (unknown origin) to IC50 for c-Met (unknown origin)
Homo sapiens [2] = species: Homo sapiens; experiment: Selectivity index, ratio of IC50 for FLT3 (unknown origin) to IC50 for c-Met (unknown origin)

Ratio IC50 (Homo sapiens [1]): 301
Ratio IC50 (Homo sapiens [2]): 210
Structure (SMILES): COc1cc2c(Oc3ccc(CC(=O)N/N=C/c4ccc(C(F)(F)F)cc4)cc3F)ccnc2cc1OCCCN1CCCC1
